Source: patent US7884199B2, “HCV NS3-NS4 protease resistance mutants” (priority 2003, dated 2011)

Sequences of proteins named here, by UniProt entry; tags and fusion partners are left off. Residues count along the entry.
UniProt P27958, 1027-1208: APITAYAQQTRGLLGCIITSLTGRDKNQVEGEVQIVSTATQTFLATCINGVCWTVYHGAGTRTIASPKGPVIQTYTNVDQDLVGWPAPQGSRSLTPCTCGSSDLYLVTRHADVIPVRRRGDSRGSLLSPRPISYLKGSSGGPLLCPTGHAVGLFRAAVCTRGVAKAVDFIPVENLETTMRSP

Target: wild type HCV NS3 serine protease domain, genotype 1a (Hepatitis C virus genotype 1a, UniProt P27958)
Assay type: biochemical

BILN 2061
Ki: 6 nM
